Source: paper PMC11359831, “Stepwise Structural Simplification of the Dihydroxyanthraquinone Moiety of a Multitarget Rhein-Based Anti-Alzheimer Lead to Improve Drug Metabolism and Pharmacokinetic Properties” (Pharmaceutics, 2024)

By UniProt entry, the sequences of proteins in these tests, tags left out. Residues count along the entry.
UniProt P06276, 29-602: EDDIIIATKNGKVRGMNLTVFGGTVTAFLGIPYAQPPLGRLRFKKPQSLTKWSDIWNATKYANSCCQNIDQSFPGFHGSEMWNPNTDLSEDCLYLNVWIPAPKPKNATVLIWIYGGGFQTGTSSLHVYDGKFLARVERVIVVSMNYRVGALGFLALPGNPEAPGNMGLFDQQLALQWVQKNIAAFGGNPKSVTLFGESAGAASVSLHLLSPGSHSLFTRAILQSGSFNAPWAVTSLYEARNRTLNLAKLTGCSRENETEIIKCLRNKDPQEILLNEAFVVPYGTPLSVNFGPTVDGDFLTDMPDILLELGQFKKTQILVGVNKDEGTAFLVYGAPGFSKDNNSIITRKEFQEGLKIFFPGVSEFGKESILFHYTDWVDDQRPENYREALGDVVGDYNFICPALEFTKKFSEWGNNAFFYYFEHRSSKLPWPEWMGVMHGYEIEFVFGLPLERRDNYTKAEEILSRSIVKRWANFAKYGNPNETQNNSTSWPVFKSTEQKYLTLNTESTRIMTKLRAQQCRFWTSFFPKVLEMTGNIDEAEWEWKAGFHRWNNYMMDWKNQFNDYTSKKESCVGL

Columns and labels:
[1] = Plasma stability, human plasma; assay type: in vitro ADME; details: 37 °C, read-out: Plasma Stability % Remaining Compound, human, 6 h
Protocol: The plasma stability of the new compounds was tested using in human, mouse, and rat plasma (Seralab). One hundred μL of 5 μM solutions of the new compounds in plasma were plated and incubated at 37 °C for 0, 60, 120, and 360 min, and then treated with 300 μL of acetonitrile and centrifuged (4000× g; 60 min; 4 °C). Sample quantification was performed by UPLC/MS/MS analysis of the resulting supernatant using a UPLC QSM Waters Acquity apparatus, equipped with a Waters ACQUITY BEH C18 1.7 μm 2.1 × 50 mm column, eluting with 0.1% formic acid in water or in acetonitrile, with a flow of 0.6 mL/min. The gradient indicated in Table 1 was used in this assay.
Compound concentration was calculated from the MS peak areas and expressed as the percentage of remaining compound at the different tested times.

[2] = target: T1, human serum BChE (hBChE) (Homo sapiens, UniProt P06276); assay type: biochemical; details: Ellman method, mean ± standard error
T1 construct: human serum BChE (hBChE); purchased Sigma (Milan, Italy); host or cells: human serum
Protocol: The human recombinant AChE (hAChE) and human serum BChE (hBChE) inhibitory activities of the new compounds 4–7 were tested by the widely used method of Ellman, using enzymes supplied by Sigma (Milan, Italy). The stock and assay solutions were prepared as follows:
Stock hBChE solution: solution of the lyophilized powder in 0.1% aq. gelatin.
Stock solutions of the new compounds: 1 mM solutions in methanol, with further dilutions in this solvent to the desired concentrations.
Assay solutions: mixture of 340 μM 5,5′-dithiobis(2-nitrobenzoic acid), hAChE or hBChE (0.02 unit/mL), and 0.1 M potassium phosphate (pH 8.0)
Acetylthiocholine iodide or butyrylthiocholine iodide (550 μM), as substrates, were added to the assay solutions, with or without the compounds to be tested, previously preincubated for 20 min at 37 °C. […] A Jasco V-530 double-beam spectrophotometer, featuring cuvette holders kept at 37 °C, was used to monitor the initial rates at 412 nm. […]

SMILES | remaining at 6 h, 5 μM [1] [%] | IC50 [2] [µM]
CC1=CC2Cc3nc4cc(Cl)ccc4c(NCCCCCCCCCNC(=O)c4cc(O)c5c(c4)C(=O)c4cccc(O)c4C5=O)c3C(C1)C2 (centres unmarked) [Compound 3] | 84.4 | 
CC1=CC2Cc3nc4cc(Cl)ccc4c(N)c3C(C1)C2 (centres unmarked) [HupY, huprine Y, reference compound] |  | 0.181 ± 0.015
